{
  "source": "paper PMC11106956",
  "about": "“Population pharmacokinetics of primaquine and its metabolites in African males” (Malaria Journal, 2024)",
  "key": {"methaemoglobin levels": {"system": "methaemoglobin levels", "test": "Linear regression of pharmacokinetic parameters against change in methaemoglobin", "assay_type": "in vivo, human (African males, Mali)", "settings": "slope (95% CI)"}, "haemoglobin levels": {"system": "haemoglobin levels", "test": "Linear regression of pharmacokinetic parameters against change in haemoglobin; haemoglobin follow-up to 28 days", "assay_type": "in vivo, human (African males, Mali)", "settings": "slope (95% CI)"}, "[1]": {"settings": "single oral PQ 0.40-0.50 mg/kg"}, "[2]": {"settings": "G6PD-deficient individuals (n = 18)"}, "[3]": {"settings": "G6PD-normal individuals (n = 10)"}, "[4]": {"settings": "typical individual 62.5 kg, metabolites dosed as PQ molar dose 1:1"}},
  "data": [
    {"substance": "Primaquine carbamoyl-glucuronide", "values": [
      {"measurement": "Correlation (regression slope) of AUC24 with change in methaemoglobin", "setting": "methaemoglobin levels; [2]", "result": "-961 (95% CI: -3904 to 1982) p-value = 0.490 % mHB change per 1 ng·hr/mL"},
      {"measurement": "Correlation (regression slope) of CMAX with change in methaemoglobin", "setting": "methaemoglobin levels; [2]", "result": "-3071 (95% CI: -8834 to 2691) p-value = 0.268 % mHB change per 1 ng/mL"},
      {"measurement": "Correlation (regression slope) of AUC24 with change in methaemoglobin", "setting": "methaemoglobin levels; [3]", "result": "1396 (95% CI: -2851 to 5643) p-value = 0.413 % mHB change per 1 ng·hr/mL"},
      {"measurement": "Correlation (regression slope) of CMAX with change in methaemoglobin", "setting": "methaemoglobin levels; [3]", "result": "922 (95% CI: -3823 to 5667) p-value = 0.618 % mHB change per 1 ng/mL"},
      {"measurement": "Correlation (regression slope) of AUC24 with change in haemoglobin", "setting": "haemoglobin levels; [2]", "result": "3.91 (95% CI: -82.1 to 89.9) p = 0.924 % HB change per 1 ng·hr/mL"},
      {"measurement": "Correlation (regression slope) of CMAX with change in haemoglobin", "setting": "haemoglobin levels; [2]", "result": "73.3 (95% CI: -90.1 to 237) p = 0.356 % HB change per 1 ng/mL"},
      {"measurement": "Correlation (regression slope) of CMAX with change in haemoglobin", "setting": "haemoglobin levels; [3]", "result": "-0.377 (95% CI: -127 to 127) p = 0.995 % HB change per 1 ng/mL"},
      {"measurement": "Half-life (terminal elimination)", "setting": "[1]; median (range) in Table 3, n = 28", "result": "17.5 (11.1–28.0) h"},
      {"measurement": "AUC24, area under the concentration-time curve up to 24 h", "setting": "[1]; median (range), n = 28", "result": "1240 (242–3100) h × ng/mL"},
      {"measurement": "CMAX, maximum concentration", "setting": "[1]; median (range), n = 28", "result": "1550 (246–7320) ng/mL"},
      {"measurement": "TMAX, time to maximum concentration", "setting": "[1]; median (range), n = 28", "result": "1.61 (0.572–1.78) h"},
      {"measurement": "MTT, absorption mean transit time, population estimate (%RSE)", "setting": "[1]; typical individual 62.5 kg, each compound modelled separately", "result": "1.13 (8.84%) h"},
      {"measurement": "CL/F, apparent elimination clearance, population estimate (%RSE)", "setting": "[1]; [4]", "result": "2.83 (15.8%) L/h"},
      {"measurement": "VC/F, apparent volume of distribution of the central compartment, population estimate (%RSE)", "setting": "[1]; [4]", "result": "55.4 (12.4%) L"}
    ]}
  ]
}
